In ChEMBL document CHEMBL1156915, “Synthesis of new thienyl ring containing HIV-1 protease inhibitors: promising preliminary pharmacological evaluation against recombinant HIV-1 proteases” (J Med Chem, 2010):

Target: Protease (Human immunodeficiency virus 1, UniProt Q9YQ12)
Assay: Inhibition of recombinant wild type HIV1 protease assessed as hydrolysis of fluorogenic substrate

CC(C)(C)NC(=O)[C@@H]1C[C@@H]2CCCC[C@@H]2CN1C[C@@H](O)[C@H](Cc1ccccc1)NC(=O)[C@H](CC(N)=O)NC(=O)c1ccc2ccccc2n1 [SAQUINAVIR]
IC50: 0.4 nM
